Assay results published in US11192889B2, “Tetrahydronaphthyridinepentanamide integrin antagonists” (The Rockefeller University, priority 2016, dated 2021).

Protein sequences, listed by entry. Tags and fused reporters are not part of them.
UniProt P05106, whole entry: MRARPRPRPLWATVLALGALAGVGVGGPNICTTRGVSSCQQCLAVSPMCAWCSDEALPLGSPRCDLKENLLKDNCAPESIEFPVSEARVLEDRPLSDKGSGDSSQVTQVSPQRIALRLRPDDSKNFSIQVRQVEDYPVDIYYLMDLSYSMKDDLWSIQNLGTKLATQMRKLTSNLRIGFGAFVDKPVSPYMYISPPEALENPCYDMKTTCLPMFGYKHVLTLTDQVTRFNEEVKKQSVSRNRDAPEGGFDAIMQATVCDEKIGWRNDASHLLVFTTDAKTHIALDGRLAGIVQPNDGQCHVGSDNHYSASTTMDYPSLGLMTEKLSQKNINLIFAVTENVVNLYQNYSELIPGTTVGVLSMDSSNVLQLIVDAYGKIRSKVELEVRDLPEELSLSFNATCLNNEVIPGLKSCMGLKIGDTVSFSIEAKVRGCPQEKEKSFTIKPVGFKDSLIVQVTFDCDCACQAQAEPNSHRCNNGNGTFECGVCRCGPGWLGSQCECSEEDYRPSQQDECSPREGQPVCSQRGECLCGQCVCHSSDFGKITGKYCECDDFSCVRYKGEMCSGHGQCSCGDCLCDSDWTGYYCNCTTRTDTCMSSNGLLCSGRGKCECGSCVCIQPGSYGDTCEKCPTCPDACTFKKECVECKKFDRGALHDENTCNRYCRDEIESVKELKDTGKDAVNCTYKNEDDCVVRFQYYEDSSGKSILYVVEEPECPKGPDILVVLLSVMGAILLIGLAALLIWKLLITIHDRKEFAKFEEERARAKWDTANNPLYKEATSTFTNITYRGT
UniProt P06756, whole entry: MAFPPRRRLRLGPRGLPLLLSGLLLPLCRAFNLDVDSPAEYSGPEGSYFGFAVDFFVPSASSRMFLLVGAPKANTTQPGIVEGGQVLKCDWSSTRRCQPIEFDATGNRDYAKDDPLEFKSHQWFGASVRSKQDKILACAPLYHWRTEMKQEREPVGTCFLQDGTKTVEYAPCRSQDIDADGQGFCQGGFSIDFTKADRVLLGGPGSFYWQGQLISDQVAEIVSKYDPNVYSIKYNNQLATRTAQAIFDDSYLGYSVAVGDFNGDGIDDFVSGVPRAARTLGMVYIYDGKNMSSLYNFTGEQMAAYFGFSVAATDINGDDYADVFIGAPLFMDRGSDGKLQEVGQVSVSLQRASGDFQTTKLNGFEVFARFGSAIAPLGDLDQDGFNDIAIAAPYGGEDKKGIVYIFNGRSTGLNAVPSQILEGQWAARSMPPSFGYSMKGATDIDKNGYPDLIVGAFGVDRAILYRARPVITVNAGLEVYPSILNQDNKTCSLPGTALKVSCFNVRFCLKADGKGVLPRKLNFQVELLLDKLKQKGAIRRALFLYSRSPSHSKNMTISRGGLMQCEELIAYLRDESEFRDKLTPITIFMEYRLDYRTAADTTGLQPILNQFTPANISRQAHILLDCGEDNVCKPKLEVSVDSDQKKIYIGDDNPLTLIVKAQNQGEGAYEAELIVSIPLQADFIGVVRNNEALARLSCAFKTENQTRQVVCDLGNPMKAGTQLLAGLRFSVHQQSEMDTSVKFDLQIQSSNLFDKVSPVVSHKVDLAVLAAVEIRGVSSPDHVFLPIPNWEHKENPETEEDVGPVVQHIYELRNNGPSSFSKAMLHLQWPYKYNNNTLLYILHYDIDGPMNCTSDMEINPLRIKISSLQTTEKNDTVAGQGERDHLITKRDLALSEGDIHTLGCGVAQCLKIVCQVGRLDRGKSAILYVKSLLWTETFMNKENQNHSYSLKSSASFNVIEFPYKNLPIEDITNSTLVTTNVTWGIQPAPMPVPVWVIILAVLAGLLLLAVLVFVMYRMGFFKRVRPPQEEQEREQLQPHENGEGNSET

Assays:
HEK-293-αVβ3 cells [1] = target: T1, HEK-293-αVβ3 cells (Homo sapiens, UniProt P05106+P06756); test: αVβ3 Cell Adhesion to Fibrinogen Assay; details: dose reducing by 50% the adhesion of HEK-293-αVβ3 cells to fibrinogen; separate determinations listed
Description: HEK-293 Cells Expressing αVβ3. HEK-293 cells were transfected using lipofectamine 2000 (Invitrogen #11668030) with the cDNA for αV using the pEF1/V5-His A vector and the cDNA for β3 using the vector pcDNA3.1. Cells expressing αVβ3 were identified by their reaction with murine monoclonal antibodies (mAbs) LM609 and 7E3, and stable cell lines were established by repetitive sorting using LM609. […] HEK-293-αVβ3 cells for assays are counted in an automated cell counter (ADVIA 120) and adjusted to values appropriate for each assay.
αVβ3 Cell Adhesion to Fibrinogen Assay. Polystyrene 96-well microtiter plates (Costar, 3590) are precoated with 3.5 μg/mL of purified fibrinogen (Enzyme Research Laboratories) in 0.15 M NaCl, 0.01 M Tris/HCL, pH 7.4 for 1 hour at 37° C. […] After 30-32 minutes the wells are washed with HBMT containing Ca2+ and Mg2+ three times and then the adherent cells are lysed and the acid phosphatase activity that is released is measured by: 1. adding phosphatase substrate (Sigma EC 224-246-5) at 2 mg/mL in 0.1 M Na citrate, pH 5.6, 0.1% triton X-100 for 1 hour at room temperature; 2. stopping the reaction by adding 50 μL of 2 M NaOH; and 3. analyzing the samples in a spectrophotometer at 405 nm. […] IC50's were not determined for all compounds in the table; for some of these test compounds the inhibition at specific doses are reported. […]

HEK-293-αVβ3 cells [2] = target: T1, HEK-293-αVβ3 cells; test: AP5 Binding Assay; type: cell-based

For `O=C(CCCCc1ccc2c(n1)NCCC2)NCC[C@H](NC(=O)c1nc2ccccc2s1)C(=O)O`, the IC50 (HEK-293-αVβ3 cells [1]) was 23.3 nM and 21.6 nM, the “AP5 expression induced at the highest concentration” value (HEK-293-αVβ3 cells [2]; @10 μM, relative to AP5 expression induced by cilengitide) was 7% and the EC50 (HEK-293-αVβ3 cells [2]; concentration inducing 50% of the AP5 expression induced by 1 μM cilengitide) was “could not be calculated”.

“And” between values parts separate entries of the source, which are not always exact repeats. Equal entries are not always repeated.
